Among the data in publication PMC9319256, “Human Enzyme PADI4 Binds to the Nuclear Carrier Importin α3” (Cells, 2022) are Kd values, retold here.

SMILES strings stand for the structures.

In this test the target is ΔImpα3. Put plainly: Fluorescence titration of ΔImpα3 with NLS1/2-PADI4. The format is binding, human. The following applies: fluorescence at 330 nm; 3 µM ΔImpα3, 0–20 µM peptide; 20 mM Tris pH 7.5, 5 mM TCEP, 150 mM NaCl, 5% glycerol, 25 °C; titration repeated three times; read-out: dissociation constant. How it is done: For the titration between either Impα3 or ΔImpα3 and NLS1/2-PADI4, increasing amounts of the corresponding peptide, in the concentration range 0–20 µM, were added to a solution with a fixed concentration of either Impα3 or ΔImpα3 (3 µM). Experiments were carried out in the same buffer used for the titration of the intact PADI4 at 25 °C. The experimental setup was the same as in the steady-state fluorescence experiments. Blank corrections were subtracted in all cases. Spectra were corrected for inner-filter effects during fluorescence excitation. Each titration (Impα3 with NLS1/2-PADI4 or ΔImpα3 with NLS1/2-PADI4) was repeated three times, using newly prepared samples. In the three cases, the variations in the results were lower than 10%.
Handling and preparation of samples were the same described in Section 2.4.1. The dissociation constant for each complex, Kd, was calculated by fitting the binding isotherm constructed to the general binding model, explicitly considering ligand depletion. […] Fitting to Equation (2) was carried out using KaleidaGraph (Synergy software, Reading, PA, USA).

As for `CC[C@H](C)[C@H](NC(=O)[C@H](CCCCN)NC(=O)[C@H](CCC(N)=O)NC(=O)[C@H](CCC(N)=O)NC(=O)[C@H](CCCCN)NC(=O)[C@H](CCCCN)NC(=O)[C@H](CCCCN)NC(=O)[C@H](CCCCN)NC(=O)[C@@H](NC(=O)CNC(=O)[C@H](CCC(=O)O)NC(=O)[C@H](Cc1ccccc1)NC(=O)[C@H](CC(C)C)NC(=O)[C@H](CC(C)C)NC(=O)[C@H](C)NC(=O)[C@H](CCC(=O)O)NC(=O)CNC(=O)[C@H](Cc1c[nH]cn1)NC(=O)CNC(=O)[C@H](CCC(=O)O)NC(=O)[C@H](CC(N)=O)NC(=O)[C@H](CCC(N)=O)NC(=O)[C@H](CCC(N)=O)NC(=O)[C@H](CCC(=O)O)NC(=O)[C@H](CCC(N)=O)NC(=O)[C@H](Cc1ccccc1)NC(=O)[C@H](CC(C)C)NC(=O)[C@H](CCCCN)NC(=O)[C@H](Cc1ccc(O)cc1)NC(C)=O)[C@@H](C)CC)C(N)=O` [NLS2-PADI4], the Kd turned out to be 4 ± 1 µM.
